From PubChem BioAssay (NCI)
Some of these compounds have results that are not shown, active ones among them.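 Protocol summary: plate cells (96-well), add compound at 5 concentrations, incubate 48 h, interpolate endpoints linearly. The concentration for 50% growth inhibition is given as GI50. TGI marks complete inhibition of growth.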

Columns and labels:
Experiment in all cases: DTP human tumour cell line panel, 48 h
KM12 colon = tested on: KM12 colon
CAKI-1 renal = tested on: CAKI-1 renal
HOP-62 NSCLC = tested on: HOP-62 NSCLC
SNB-75 CNS = tested on: SNB-75 CNS
OVCAR-5 ovarian = tested on: OVCAR-5 ovarian
TK-10 renal = tested on: TK-10 renal
HL-60(TB) leukemia = tested on: HL-60(TB) leukemia
M14 melanoma = tested on: M14 melanoma
K-562 leukemia = tested on: K-562 leukemia
COLO 205 colon = tested on: COLO 205 colon
SNB-19 CNS = tested on: SNB-19 CNS
UACC-62 melanoma = tested on: UACC-62 melanoma
SF-539 CNS = tested on: SF-539 CNS
HS 578T breast = tested on: HS 578T breast
RXF 393 renal = tested on: RXF 393 renal
U251 CNS = tested on: U251 CNS
UO-31 renal = tested on: UO-31 renal
HCT-15 colon = tested on: HCT-15 colon
IGROV1 ovarian = tested on: IGROV1 ovarian
PC-3 prostate = tested on: PC-3 prostate
SK-OV-3 ovarian = tested on: SK-OV-3 ovarian
MDA-N = tested on: MDA-N
CCRF-CEM leukemia = tested on: CCRF-CEM leukemia
NCI-H226 lung = tested on: NCI-H226 lung
SK-MEL-2 melanoma = tested on: SK-MEL-2 melanoma
DU-145 prostate = tested on: DU-145 prostate
RPMI-8226 leukemia = tested on: RPMI-8226 leukemia
OVCAR-8 ovarian = tested on: OVCAR-8 ovarian
NCI-H23 lung = tested on: NCI-H23 lung
MALME-3M melanoma = tested on: MALME-3M melanoma
EKVX NSCLC = tested on: EKVX NSCLC
NCI-H322M lung = tested on: NCI-H322M lung
OVCAR-4 ovarian = tested on: OVCAR-4 ovarian
HCC-2998 colon = tested on: HCC-2998 colon
NCI/ADR-RES ovarian = tested on: NCI/ADR-RES ovarian
786-0 renal = tested on: 786-0 renal
SF-295 CNS = tested on: SF-295 CNS
MOLT-4 leukemia = tested on: MOLT-4 leukemia
SW-620 colon = tested on: SW-620 colon
UACC-257 melanoma = tested on: UACC-257 melanoma
LOX IMVI melanoma = tested on: LOX IMVI melanoma
NCI-H522 lung = tested on: NCI-H522 lung
NCI-H460 lung = tested on: NCI-H460 lung
SK-MEL-5 melanoma = tested on: SK-MEL-5 melanoma
SR leukemia = tested on: SR leukemia
ACHN renal = tested on: ACHN renal
SF-268 CNS = tested on: SF-268 CNS
OVCAR-3 ovarian = tested on: OVCAR-3 ovarian
MDA-MB-231 breast = tested on: MDA-MB-231 breast
SK-MEL-28 melanoma = tested on: SK-MEL-28 melanoma
T-47D breast = tested on: T-47D breast
HT29 colon = tested on: HT29 colon
MDA-MB-435 = tested on: MDA-MB-435
HCT-116 colon = tested on: HCT-116 colon
SN12C renal = tested on: SN12C renal
A549 NSCLC = tested on: A549 NSCLC
A498 renal = tested on: A498 renal

For `CC#CC(O)(C(=O)OC1CCN(C)C1)c1ccccc1` (centres undefined), the GI50 (KM12 colon) was > 100 µM, the TGI (KM12 colon) was > 100 µM and the GI50 (CAKI-1 renal) was > 100 µM. For the same compound, the TGI (CAKI-1 renal) was > 100 µM, the GI50 (HOP-62 NSCLC) was > 100 µM and the TGI (HOP-62 NSCLC) was > 100 µM. For the same compound, the GI50 (SNB-75 CNS) was > 100 µM, the TGI (SNB-75 CNS) was > 100 µM and the GI50 (OVCAR-5 ovarian) was 0.443 µM. For the same compound, the TGI (OVCAR-5 ovarian) was > 100 µM, the GI50 (TK-10 renal) was > 100 µM and the TGI (TK-10 renal) was > 100 µM. The GI50 (HL-60(TB) leukemia) was > 100 µM, the TGI (HL-60(TB) leukemia) was > 100 µM and the GI50 (M14 melanoma) was > 100 µM. The TGI (M14 melanoma) was > 100 µM, the GI50 (K-562 leukemia) was > 100 µM and the TGI (K-562 leukemia) was > 100 µM. The GI50 (COLO 205 colon) was > 100 µM, the TGI (COLO 205 colon) was > 100 µM and the GI50 (SNB-19 CNS) was > 100 µM. The TGI (SNB-19 CNS) was > 100 µM, the GI50 (UACC-62 melanoma) was > 100 µM and the TGI (UACC-62 melanoma) was > 100 µM. For the same compound, the GI50 (SF-539 CNS) was > 100 µM, the TGI (SF-539 CNS) was > 100 µM and the GI50 (HS 578T breast) was > 100 µM. For the same compound, the TGI (HS 578T breast) was > 100 µM, the GI50 (RXF 393 renal) was > 100 µM and the TGI (RXF 393 renal) was > 100 µM. For the same compound, the GI50 (U251 CNS) was > 100 µM, the TGI (U251 CNS) was > 100 µM and the GI50 (UO-31 renal) was > 100 µM. For the same compound, the TGI (UO-31 renal) was > 100 µM, the GI50 (HCT-15 colon) was > 100 µM and the TGI (HCT-15 colon) was > 100 µM. The GI50 (IGROV1 ovarian) was > 100 µM, the TGI (IGROV1 ovarian) was > 100 µM and the GI50 (PC-3 prostate) was > 100 µM. The TGI (PC-3 prostate) was > 100 µM, the GI50 (SK-OV-3 ovarian) was > 100 µM and the TGI (SK-OV-3 ovarian) was > 100 µM. The GI50 (MDA-N) was > 100 µM, the TGI (MDA-N) was > 100 µM and the GI50 (CCRF-CEM leukemia) was > 100 µM. For the same compound, the TGI (CCRF-CEM leukemia) was > 100 µM, the GI50 (NCI-H226 lung) was > 100 µM and the TGI (NCI-H226 lung) was > 100 µM. For the same compound, the GI50 (SK-MEL-2 melanoma) was > 100 µM, the TGI (SK-MEL-2 melanoma) was > 100 µM and the GI50 (DU-145 prostate) was > 100 µM. For the same compound, the TGI (DU-145 prostate) was > 100 µM, the GI50 (RPMI-8226 leukemia) was > 100 µM and the TGI (RPMI-8226 leukemia) was > 100 µM. The GI50 (OVCAR-8 ovarian) was > 100 µM, the TGI (OVCAR-8 ovarian) was > 100 µM and the GI50 (NCI-H23 lung) was > 100 µM. For the same compound, the TGI (NCI-H23 lung) was > 100 µM, the GI50 (MALME-3M melanoma) was > 100 µM and the TGI (MALME-3M melanoma) was > 100 µM. For the same compound, the GI50 (EKVX NSCLC) was > 100 µM, the TGI (EKVX NSCLC) was > 100 µM and the GI50 (NCI-H322M lung) was > 100 µM. The TGI (NCI-H322M lung) was > 100 µM, the GI50 (OVCAR-4 ovarian) was > 100 µM and the TGI (OVCAR-4 ovarian) was > 100 µM. For the same compound, the GI50 (HCC-2998 colon) was > 100 µM, the TGI (HCC-2998 colon) was > 100 µM and the GI50 (NCI/ADR-RES ovarian) was > 100 µM. The TGI (NCI/ADR-RES ovarian) was > 100 µM, the GI50 (786-0 renal) was > 100 µM and the TGI (786-0 renal) was > 100 µM. For the same compound, the GI50 (SF-295 CNS) was 0.359 µM, the TGI (SF-295 CNS) was 22.3 µM and the GI50 (MOLT-4 leukemia) was > 100 µM. The TGI (MOLT-4 leukemia) was > 100 µM, the GI50 (SW-620 colon) was > 100 µM and the TGI (SW-620 colon) was > 100 µM. For the same compound, the GI50 (UACC-257 melanoma) was > 100 µM, the TGI (UACC-257 melanoma) was > 100 µM and the GI50 (LOX IMVI melanoma) was 0.182 µM. For the same compound, the TGI (LOX IMVI melanoma) was 15.4 µM, the GI50 (NCI-H522 lung) was > 100 µM and the TGI (NCI-H522 lung) was > 100 µM. The GI50 (NCI-H460 lung) was > 100 µM, the TGI (NCI-H460 lung) was > 100 µM and the GI50 (SK-MEL-5 melanoma) was > 100 µM. The TGI (SK-MEL-5 melanoma) was > 100 µM, the GI50 (SR leukemia) was > 100 µM and the TGI (SR leukemia) was > 100 µM. For the same compound, the GI50 (ACHN renal) was > 100 µM, the TGI (ACHN renal) was > 100 µM and the GI50 (SF-268 CNS) was > 100 µM. The TGI (SF-268 CNS) was > 100 µM, the GI50 (OVCAR-3 ovarian) was > 100 µM and the TGI (OVCAR-3 ovarian) was > 100 µM. For the same compound, the GI50 (MDA-MB-231 breast) was > 100 µM, the TGI (MDA-MB-231 breast) was > 100 µM and the GI50 (SK-MEL-28 melanoma) was > 100 µM. The TGI (SK-MEL-28 melanoma) was > 100 µM, the GI50 (T-47D breast) was > 100 µM and the TGI (T-47D breast) was > 100 µM. The GI50 (HT29 colon) was > 100 µM, the TGI (HT29 colon) was > 100 µM and the GI50 (MDA-MB-435) was > 100 µM. The TGI (MDA-MB-435) was > 100 µM, the GI50 (HCT-116 colon) was > 100 µM and the TGI (HCT-116 colon) was > 100 µM. The GI50 (SN12C renal) was > 100 µM, the TGI (SN12C renal) was > 100 µM and the GI50 (A549 NSCLC) was > 100 µM. For the same compound, the TGI (A549 NSCLC) was > 100 µM, the GI50 (A498 renal) was > 100 µM and the TGI (A498 renal) was > 100 µM.
